Experimental data published in patent US20250129087A1, “SALT CRYSTALS” (INTRA-CELLULAR THERAPIES, INC., priority 2022, published 2025).

Experiment: Aqueous solubility of the salt crystals (shaking in water for 24 hours, LC analysis)
Method: Samples are filtered and diluted (in a mixture of acetonitrile/water (1/1)) for LC analysis. Solubilities are calculated with the use of a calibration line. Furthermore, the pH values of the filtrated solutions are determined using pH indication paper.

In the case of CN1C(=O)c2c(nn(Cc3ccc(-c4cccc(F)n4)cc3)c2Nc2ccccc2)N2C1=N[C@@H]1CCC[C@@H]12.O=C(O)c1ccncc1 [Isonicotinate Salt 1], the Appearance (appearance of the sample after shaking in water for 24 hours (Slurry or Clear)) is reported as “Slurry” and the “Solubility” value (aqueous, shaking in water for 24 hours, filtered, LC analysis with calibration line) is reported as 7630 µg/mL.
